## CycPeptMPDB entries from one study

Source: CycPeptMPDB (Li et al. 2023), which took these values from Furukawa et al. 2016, doi:10.1021/acs.jmedchem.6b01246.

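Lipid, pH, incubation time, direction and concentration are not recorded in the data file. The list need not hold all peptides of the study. Entries at the database's floor value (log10 P of -10) are not listed.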

PAMPA measures passive passage through an artificial lipid membrane.
Caco-2: transport across a human colon carcinoma cell monolayer.
Permeability is given as log10 of P in cm/s; higher (less negative) is more permeable.
Cells with "n/a" have no entry in this list.

SMILES,PAMPA (log10 cm/s),Caco-2 (log10 cm/s)
CCCC[C@@H]1NC(=O)[C@H](CC(C)C)NC(=O)CN(CC2CCCCC2)C(=O)[C@H](C)NC(=O)CN(Cc2ccc3c(c2)OCO3)C(=O)[C@@H]2CCCN2C1=O,-5.19,n/a
CCCCCN1CC(=O)N[C@@H](CC(C)C)C(=O)N[C@@H](CCCC)C(=O)N2CCC[C@@H]2C(=O)N(CC)CC(=O)N[C@H](Cc2ccccc2)C1=O,-5.41,n/a
CCCC[C@@H]1NC(=O)[C@H](CC(C)C)N(C)C(=O)CN(CC2CCCCC2)C(=O)[C@H](Cc2ccccc2)NC(=O)CN(CC)C(=O)[C@H]2CCCN2C1=O,-5.54,n/a
CCCC[C@@H]1NC(=O)[C@@H](CC(C)C)N(C)C(=O)CN(CC2CCOCC2)C(=O)[C@@H](Cc2ccccc2)NC(=O)CN(CC)C(=O)[C@@H]2CCCN2C1=O,-6.22,n/a
CCCCCN1CC(=O)N(C)[C@H](CC(C)C)C(=O)N[C@@H](CCCC)C(=O)N2CCC[C@@H]2C(=O)N(CCCOC(C)C)CC(=O)N[C@H](C)C1=O,-5.38,n/a
CCCC[C@@H]1NC(=O)[C@@H](CC(C)C)N(C)C(=O)CN(CC2CCCCC2)C(=O)[C@H](Cc2ccccc2)NC(=O)CN(CC)C(=O)[C@H]2CCCN2C1=O,-5.43,n/a
CCCC[C@@H]1NC(=O)[C@@H](CC(C)C)N(C)C(=O)CN(CC2CCOCC2)C(=O)[C@H](Cc2ccccc2)NC(=O)CN(CCCOC(C)C)C(=O)[C@H]2CCCN2C1=O,-5.03,n/a
CCCC[C@@H]1NC(=O)[C@@H](CC(C)C)NC(=O)CN(CC2CCOCC2)C(=O)[C@@H](C)NC(=O)CN(CC)C(=O)[C@H]2CCCN2C1=O,-7.14,n/a
CCCC[C@@H]1NC(=O)[C@@H](CC(C)C)N(C)C(=O)CN(CC2CCOCC2)C(=O)[C@H](C)NC(=O)CN(Cc2ccc3c(c2)OCO3)C(=O)[C@H]2CCCN2C1=O,-5.47,n/a
CCCC[C@@H]1NC(=O)[C@@H](CC(C)C)NC(=O)CN(CC2CCOCC2)C(=O)[C@@H](Cc2ccccc2)NC(=O)CN(CC)C(=O)[C@H]2CCCN2C1=O,-6.15,n/a
CCCC[C@@H]1NC(=O)[C@@H](CC(C)C)NC(=O)CN(CC2CCOCC2)C(=O)[C@H](C)NC(=O)CN(CC)C(=O)[C@H]2CCCN2C1=O,-7.39,n/a
CCCC[C@@H]1NC(=O)[C@H](CC(C)C)N(C)C(=O)CN(CC2CCOCC2)C(=O)[C@@H](C)NC(=O)CN(CC)C(=O)[C@H]2CCCN2C1=O,-7.92,n/a
CCCC[C@@H]1NC(=O)[C@H](CC(C)C)NC(=O)CN(CC2CCOCC2)C(=O)[C@H](C)NC(=O)CN(CC)C(=O)[C@H]2CCCN2C1=O,-7.62,n/a
CCCCCN1CC(=O)N[C@H](CC(C)C)C(=O)N[C@@H](CCCC)C(=O)N2CCC[C@@H]2C(=O)N(CC)CC(=O)N[C@H](Cc2ccccc2)C1=O,-5.22,n/a
CCCC[C@@H]1NC(=O)[C@H](CC(C)C)N(C)C(=O)CN(CC2CCOCC2)C(=O)[C@@H](C)NC(=O)CN(CCCOC(C)C)C(=O)[C@@H]2CCCN2C1=O,-7.04,n/a
CCCCCN1CC(=O)N[C@@H](CC(C)C)C(=O)N[C@@H](CCCC)C(=O)N2CCC[C@H]2C(=O)N(CC)CC(=O)N[C@H](C)C1=O,-6.48,n/a
CCCCCN1CC(=O)N[C@H](CC(C)C)C(=O)N[C@@H](CCCC)C(=O)N2CCC[C@H]2C(=O)N(CC)CC(=O)N[C@H](Cc2ccccc2)C1=O,-5.23,n/a
CCCC[C@@H]1NC(=O)[C@@H](CC(C)C)N(C)C(=O)CN(CC2CCOCC2)C(=O)[C@@H](Cc2ccccc2)NC(=O)CN(Cc2ccc3c(c2)OCO3)C(=O)[C@H]2CCCN2C1=O,-5.29,n/a
CCCC[C@@H]1NC(=O)[C@H](CC(C)C)NC(=O)CN(CC2CCCCC2)C(=O)[C@H](Cc2ccccc2)NC(=O)CN(Cc2ccc3c(c2)OCO3)C(=O)[C@H]2CCCN2C1=O,-5.71,n/a
CCCC[C@@H]1NC(=O)[C@@H](CC(C)C)N(C)C(=O)CN(CC2CCCCC2)C(=O)[C@H](Cc2ccccc2)NC(=O)CN(CCCOC(C)C)C(=O)[C@@H]2CCCN2C1=O,-5.35,n/a
CCCC[C@@H]1NC(=O)[C@@H](CC(C)C)N(C)C(=O)CN(CC2CCOCC2)C(=O)[C@H](C)NC(=O)CN(CCCOC(C)C)C(=O)[C@@H]2CCCN2C1=O,-6.27,n/a
CCCCCN1CC(=O)N[C@H](CC(C)C)C(=O)N[C@@H](CCCC)C(=O)N2CCC[C@H]2C(=O)N(CC)CC(=O)N[C@@H](Cc2ccccc2)C1=O,-5.05,n/a
CCCC[C@@H]1NC(=O)[C@H](CC(C)C)N(C)C(=O)CN(CC2CCOCC2)C(=O)[C@H](Cc2ccccc2)NC(=O)CN(CC)C(=O)[C@H]2CCCN2C1=O,-5.50,-5.98

Extract of 2 entries:

SMILES,PAMPA (log10 cm/s),Caco-2 (log10 cm/s)
CCCC[C@@H]1NC(=O)[C@H](CC(C)C)NC(=O)CN(CC2CCOCC2)C(=O)[C@H](C)NC(=O)CN(CC)C(=O)[C@H]2CCCN2C1=O,-7.62,n/a
CCCC[C@@H]1NC(=O)[C@@H](CC(C)C)N(C)C(=O)CN(CC2CCOCC2)C(=O)[C@@H](Cc2ccccc2)NC(=O)CN(Cc2ccc3c(c2)OCO3)C(=O)[C@H]2CCCN2C1=O,-5.29,n/a